# Patent publication US9259482B2, “Conjugates of polymers having a therapeutically active agent and an angiogenesis targeting moiety attached thereto and uses thereof in the treatment of angiogenesis related diseases” (Ramot at Tel-Aviv University Ltd., priority 2008, dated 2016)
# Assay: Hydrodynamic diameter by Nanoparticle Tracking Analysis
# Format: physicochemical
# Conditions: PBS
# Description: The mean hydrodynamic diameter of the PGA conjugates was evaluated using a real time particle analyzer (NanoSight LM20™) containing a solid-state, single mode laser diode (<20 mW, 655 nm) configured to launch a finely focused beam through a 500 μl sample chamber. The tested conjugate was dissolved in PBS to a final concentrations of 9.9 mg/ml. The samples were then injected into the chamber by syringe and allowed to equilibrate to a unit temperature (23° C.) for 30 seconds. The particles dynamics were visualized at 30 frames per second (fps) for 60 seconds at 640×480 resolution by the device CCD camera. The paths the particles take under Brownian motion over time were analyzed using Nanoparticle Tracking Analysis (NTA) software. […] Each sample was measured three times in triplicates, and the results represent the mean diameter.
substance,measurement,setting,value
PGA-Copolymer -E-c(RGDfk)2-Paclitaxel [PGA-PTX-E-[c(RGDfk)2]],mean hydrodynamic diameter,"conjugate with PTX loading of 2.6 mol % and -E-c(RGDfk)2 loading of 5 mol %, FIG. 9B",about 40 nm
same,mean hydrodynamic diameter,"conjugate with PTX loading of 5.5 mol % and -E-c(RGDfk)2 loading of 3.9 mol %, FIG. 9A",about 30 nm
